Measurements from patent US11166940B2, “Treatment of cardiac disorders by blocking SK4 potassium channel” (Ramot at Tel-Aviv University Ltd., priority 2016, dated 2021).
Read-outs that look alike come from different tables or passages of the source.

Target: SK4 K+ currents (Homo sapiens, UniProt O15554)
Details: for cells in which TRAM-34 sensitive currents were observed: 5 μM TRAM-34
Description: The spontaneous automaticity of isolated SAN cells was recorded under perforated-patch conditions by adding 30 μM β-escin49 to the intracellular solution containing (in mM): 130 KCl, 10 NaCl, 10 HEPES, 0.2 EGTA-KOH, 2 MgATP, 6.6 Phosphocreatine, 0.05 cAMP and 1 μM free Ca^2+ (pH 7.2). To record SK4 K+ current, a voltage ramp protocol was applied. SAN and hiPS-CMs were held at −40 mV and −20 mV, respectively to substantially inactivate voltage-gated Na^+ and Ca^2+ currents. Cells were stepped from −90 mV to +60 mV for 150 ms. Then, a cocktail (solution 1) containing (in mM) 0.3 cadmium, 0.025 ZD-7288 and 0.01 E-4031 was applied extracellularly to inhibit residual L-type and T-type voltage-gated Ca2+ currents, If and the IKr currents, respectively. […] For voltage-clamp recording of SAN cells, the intracellular solution was the same to that described above for recording spontaneous automaticity.

## Clc1ccccc1C(c1ccccc1)(c1ccccc1)n1cccn1 [TRAM-34, 1-[(2-chlorophenyl)diphenylmethyl]-1H-pyrazole]
5 μM TRAM-34 added to solution 1, 1 μM internal free Ca2+, normal and CPVT2 hiPS-CMs
  currents remaining in solution 1 (inward and outward): decreased the currents in both inward and outward directions
CPVT2 hiPSC-CMs
  cells in which TRAM-34 sensitive currents were observed: 9 out of 13
Normal hiPS-CMs
  cells in which TRAM-34 sensitive currents were observed: 7 out of 15
